Only a part is listed here, and it is no random draw. Some structures have more than one record in an assay (separate samples or runs), and their calls can disagree. Calls of active or inactive are those of the source. Rule as the data show it: active = growth inhibition above about 70%; inactive = the rest.

The test is described as follows: NCI Yeast Anticancer Drug Screen. Data for the wt1 strain (AID 149).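 Also: 0% = growth of vehicle-treated wt1 cultures.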 Conditions: S. cerevisiae wt1 strain (SPY 50644) growth inhibition, active compounds read high. The procedure: Growth inhibition of yeast strains with defined genetic alterations is measured as a screen for potential anti-cancer activity. Selected strains with alterations in DNA damage repair or cell cycle control were exposed to compounds and growth inhibition was measured relative to vehicle treated controls. The strain used in this assay is wt1

On to `Cc1ccc([N+](=O)[O-])c(C[N+](C)(CCCl)CCCl)c1`, for which the growth inhibition is inactive: 17% (at 1.2 µM); inactive: 16% (at 3.7 µM); inactive: 22% (at 11.0 µM); inactive: 44% (at 33.0 µM); active: 82% (at 100.0 µM).
On to `ClCCN1CCCCC1CCl` (stereo not given), for which the growth inhibition is inactive: -2% (at 1.2 µM); inactive: 1% (at 3.7 µM); inactive: 1% (at 11.0 µM); inactive: 6% (at 33.0 µM); inactive: 26% (at 100.0 µM).
For `COc1ccc([N+](=O)[O-])c(C[N+](C)(CCCl)CCCl)c1`, the growth inhibition by setting is: (at 1.2 µM) inactive: -14%; (at 3.7 µM) inactive: -11%; (at 11.0 µM) inactive: -8%; (at 33.0 µM) inactive: 2%; (at 100.0 µM) inactive: 12%.
On the same counts, the results for `Cc1cccc(C[N+](C)(CCCl)CCCl)c1[N+](=O)[O-]` are inactive: 21%, inactive: 26%, inactive: 23%, inactive: 36% and active: 85%.
On the same counts, the results for `COc1ccc(C[N+](C)(CCCl)CCCl)c([N+](=O)[O-])c1` are inactive: -2%, inactive: 0%, inactive: -2%, inactive: 0% and inactive: 2%.
In the same order, the values of `Cn1cnc([N+](=O)[O-])c1C[N+](C)(CCCl)CCCl` are inactive: -9%, inactive: -6%, inactive: 1%, inactive: 24% and inactive: 58%.
